The term IC50 denotes the midpoint of a concentration-inhibition curve.

Protein sequences, listed by entry. Tags and fused reporters are not part of them. Residues count along the entry.
UniProt P00533, 25-1210 S811F: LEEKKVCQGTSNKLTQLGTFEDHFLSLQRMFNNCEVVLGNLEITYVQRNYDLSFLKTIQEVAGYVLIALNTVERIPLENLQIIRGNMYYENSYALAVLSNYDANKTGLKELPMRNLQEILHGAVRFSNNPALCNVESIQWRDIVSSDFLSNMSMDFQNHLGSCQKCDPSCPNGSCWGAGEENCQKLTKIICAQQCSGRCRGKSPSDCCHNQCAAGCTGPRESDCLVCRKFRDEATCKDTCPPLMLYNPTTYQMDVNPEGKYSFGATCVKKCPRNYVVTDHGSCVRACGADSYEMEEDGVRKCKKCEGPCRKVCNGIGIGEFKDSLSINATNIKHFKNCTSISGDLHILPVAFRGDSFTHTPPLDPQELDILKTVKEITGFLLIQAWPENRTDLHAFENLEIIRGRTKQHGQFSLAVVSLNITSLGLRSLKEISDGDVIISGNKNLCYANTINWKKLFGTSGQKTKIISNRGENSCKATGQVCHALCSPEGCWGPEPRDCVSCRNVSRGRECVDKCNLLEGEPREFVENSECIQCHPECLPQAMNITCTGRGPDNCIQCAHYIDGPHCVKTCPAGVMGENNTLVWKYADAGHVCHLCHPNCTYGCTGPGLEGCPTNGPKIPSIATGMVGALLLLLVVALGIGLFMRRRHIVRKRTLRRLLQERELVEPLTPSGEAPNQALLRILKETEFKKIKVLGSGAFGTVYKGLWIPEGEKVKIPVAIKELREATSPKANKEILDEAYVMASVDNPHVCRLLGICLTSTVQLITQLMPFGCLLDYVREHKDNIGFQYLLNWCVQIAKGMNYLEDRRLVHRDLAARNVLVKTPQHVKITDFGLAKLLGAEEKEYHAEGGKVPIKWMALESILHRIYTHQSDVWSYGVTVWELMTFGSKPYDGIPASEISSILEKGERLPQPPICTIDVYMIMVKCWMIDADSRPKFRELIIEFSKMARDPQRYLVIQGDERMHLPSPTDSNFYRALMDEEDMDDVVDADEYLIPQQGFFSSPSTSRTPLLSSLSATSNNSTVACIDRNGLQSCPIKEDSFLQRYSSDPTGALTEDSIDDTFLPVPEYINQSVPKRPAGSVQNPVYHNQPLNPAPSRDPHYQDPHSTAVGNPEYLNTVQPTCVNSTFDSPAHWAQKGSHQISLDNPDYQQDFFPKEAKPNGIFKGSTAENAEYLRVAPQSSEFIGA

Consider one compound from patent US20260240847A1, “COMPOUNDS WITH ANTI-TUMOR ACTIVITY AGAINST CANCER CELLS BEARING TYROSINE KINASE INHIBITOR RESISTANT EGFR MUTATIONS” (BOARD OF REGENTS, THE UNIVERSITY OF TEXAS SYSTEM, priority 2019, published 2026).

For this assay, the target named is EGFR S811F (Homo sapiens, UniProt P00533, S811F). In words: Ba/F3 cell viability, Cell Titer Glo. To be noted: read-out: IC50 Values; Ba/F3 cells expressing EGFR S811F, 72 hours.

Regarding `Cc1cc(C(=O)Nc2nc3cccc(Cl)c3n2[C@@H]2CCCCN(C(=O)/C=C/CN(C)C)C2)ccn1`, the concentration for half-maximal inhibition (IC50) was 0.743 µM.
